Source: US20160346313A1, “USES OF OLIGOURONATES IN CANCER TREATMENT” (NORWEGIAN UNIVERSITY OF SCIENCE AND TECHNOLOGY, priority 2013, published 2016)

Test system: Capan-2 human pancreas tumour xenograft
Test: Capan-2 human pancreas tumour xenograft model: tumour weight, with statistical analysis (ANOVA by day, Eav, log scale, exponential growth model)
Format: in vivo, Female Athymic Nude mice
Conditions: Gemcitabine 5
Experimental: The purpose of this study was to evaluate the anti-tumour activity of G-Block as an enhancer in combination with gemcitabine in the Capan-2 human pancreas tumour xenograft model. Gemcitabine was dosed at a level that would not be curative and allow for proof of concept evaluation in this model. Efficacy was assessed by comparison of tumour weights of treated groups with the vehicle control group on Day 11 and 74 and between combination groups and their respective single agents on Day 11 and 74.
G-Block (Lot #PolyG 230712-Dp10, 95%G) was received as a white hygroscopic amorphous powder from NTNU Technology Transfer AS (Trondheim, Norway) and stored desiccated at room temperature until use. NTNU's G-Block was dissolved in MilliQ water to a concentration of 70 mg/ml to be used as the stock solution. This solution was used to deliver a dose of approximately 560 mg/kg in a 200 μl fixed dose. The 70 mg/ml solution was then diluted in 0.9% 150 mM NaCl (B. Braun Medical; Irvine, Calif.) to deliver doses of approximately 200 mg/kg, 75 mg/kg, 25 mg/kg, and 5 mg/kg in a 200 μL fixed dose volume. All dosing calculations assume a 25 g animal. NTNU's G-Block 70 mg/ml stock solution was formulated at the beginning of the study and used for dilutions before each dose, sterile filtered, and stored at 4° C. between doses. All unused dosing mixture was properly disposed of at TD2 after the study ended.
Gemcitabine (Lot #A892259C) was received as a solution from Eli Lilly and Co. (Indianapolis, Ind.) and stored at room temperature until use. […]
Female mice were inoculated subcutaneously in the right flank with 0.1 mL of a 50% RPMI/50% Matrigel™ (BD Biosciences, Bedford, Mass.) mixture containing a suspension of Capan-2 tumor cells (approximately 5.0×10^6 cells/mouse). Seven days following inoculation, tumors were measured using calipers and tumor weight was calculated using the animal study management software, Study Director V.2.1.1 (Study Log)^1. […] Body weights were recorded when the mice were randomized and were taken twice weekly thereafter in conjunction with tumor measurements. […]

Measured: Ratio vs Vehicle

Nc1ccn([C@@H]2O[C@H](CO)[C@@H](O)C2(F)F)c(=O)n1 [Gemcitabine 5, Gemcitabine]
1.14: Day 64 | Day 67 | Day 71
